What was measured:
[1] = test system: rat; conditions: Prenatal developmental toxicity study, Oral, Gavage/Intubation, dose end: 12 day
[2] = test system: rabbit; conditions: Prenatal developmental toxicity study, new zealand white, Oral, Gavage/Intubation, dose end: 13 day
[3] = test system: rat; conditions: Prenatal developmental toxicity study, sprague dawley, Oral, Gavage/Intubation, dose end: 12 day
[4] = test system: rabbit; conditions: Prenatal developmental toxicity study, Oral, Gavage/Intubation, dose end: 13 day, group: maternal
[5] = test system: rat; conditions: Prenatal developmental toxicity study; Oral; Gavage/Intubation; dose end: 1 generation; group: maternal; reproductive / reproductive performance / precoital interval / precoital interval + systemic / in life observation / body weight / body …
[6] = test system: rat; conditions: Prenatal developmental toxicity study, Oral, Gavage/Intubation, dose end: 12 day; remark: listed apart in the source
[7] = group: developmental, developmental / developmental malformation / trunk / umbilical hernia + systemic / in life observation / body weight / fetal weight
[8] = group: maternal, systemic / clinical chemistry / cholesterol / cholesterol + systemic / pathology microscopic / blood / poikilocytosis
[9] = group: maternal, systemic / clinical chemistry / cholesterol / cholesterol + systemic / pathology microscopic / blood / poikilocytosis + reproductive / …
[10] = group: developmental, systemic / in life observation / body weight / fetal weight
[11] = group: maternal, reproductive / reproductive performance / aborted / aborted + systemic / in life observation / body weight / body weight gain + systemic / …
[12] = group: maternal, systemic / in life observation / body weight / body weight gain + systemic / in life observation / food consumption / food consumption
[13] = group: maternal, systemic / in life observation / body weight / body weight + systemic / in life observation / body weight / body weight gain + systemic / in…
[14] = systemic / in life observation / body weight / body weight gain + systemic / in life observation / food consumption / food consumption + …
[15] = group: developmental, developmental / developmental malformation / trunk / anal atresia + systemic / in life observation / body weight / fetal weight

Structure (SMILES): CC(=O)NCCN1CCc2cc(NC(=O)c3ccccc3-c3ccc(C(F)(F)F)cc3)ccc2C1
- LEL [1, 7]: 2 mg/kg/day
- NEL [1, 7]: < 2 mg/kg/day
- LEL [1, 8]: 2 mg/kg/day
- NEL [1, 8]: < 2 mg/kg/day
- LOAEL [1, 9]: > 50 mg/kg/day
- NOAEL [1, 9]: ≥ 50 mg/kg/day
- LEL [2, 10]: 2 mg/kg/day
- LOAEL [2, 10]: > 100 mg/kg/day
- NEL [2, 10]: < 2 mg/kg/day
- NOAEL [2, 10]: ≥ 100 mg/kg/day
- LOAEL [2, 11]: > 100 mg/kg/day
- NOAEL [2, 11]: ≥ 100 mg/kg/day
- LEL [2, 12]: 2 mg/kg/day
- NEL [2, 12]: < 2 mg/kg/day

Structure (SMILES): CS(=O)(=O)O.Cc1nccn1-c1ccc(Sc2cccc(C3(C(N)=O)CCOCC3)c2)cc1
- LEL [3, 10]: 75 mg/kg/day
- LOAEL [3, 10]: > 75 mg/kg/day
- NOAEL [3, 10]: ≥ 75 mg/kg/day
- LOAEL [3, 13]: > 75 mg/kg/day
- NOAEL [3, 13]: ≥ 75 mg/kg/day
- LEL [3, 12]: 10 mg/kg/day
- NEL [3, 12]: < 10 mg/kg/day

Structure (SMILES): Cc1cc2c3c(c1)C(c1ccccc1)=N[C@@H](NC(=O)c1ccncc1)C(=O)N3CC2 [CI-1018]
- NEL ([4]; systemic / in life observation / body weight / body weight gain + systemic / in life observation / food consumption / food consumption): < 50 mg/kg/day
- LOAEL [4, 14]: > 1000 mg/kg/day
- NOAEL [4, 14]: ≥ 1000 mg/kg/day
- LEL [5]: 300 mg/kg/day
- LOAEL [5]: > 500 mg/kg/day
- NEL [5]: 100 mg/kg/day
- NOAEL [5]: ≥ 500 mg/kg/day
- LEL [6, 15]: 500 mg/kg/day
- LOAEL [6, 15]: > 750 mg/kg/day
- NOAEL [6, 15]: ≥ 750 mg/kg/day
- LOAEL [6, 13]: > 750 mg/kg/day
- NEL [6, 13]: 100 mg/kg/day
- NOAEL [6, 13]: ≥ 750 mg/kg/day
- LEL ([6]; group: maternal, systemic / in life observation / body weight / body weight gain + systemic / in life observation / clinical signs / abnormal feces + …): 300 mg/kg/day

Source: EPA's ToxRefDB 2
